Experimental findings from ChEMBL document CHEMBL5512619, “Anticancer mechanism of coumarin-based derivatives” (Eur J Med Chem, 2024) are described below.

One assay concerns Calf thymus DNA. To be noted: Bos taurus.
Another assay has as its target Carbonic anhydrase 2 (Homo sapiens, UniProt P00918). Description: Binding affinity to human CA2 assessed as inhibition constant incubated for 6 hrs by phenol red dye based stopped flow CO2 hydration assay.

Consider `CC(=O)Nc1nnc(SCC(=O)Nc2ccc3oc(=O)ccc3c2)s1`, for which the KSV with Calf thymus DNA is 4.27 10^5/M.

For the compound `Cc1cc(=O)oc2cc(OCc3cn(CCCCCCCCCCCCOc4ccc5ccc(=O)oc5c4)nn3)ccc12`, the Ki on Carbonic anhydrase 2 was above 10 µM.

`O=C(COc1cccc(O)c1)Nc1ccc2oc(=O)ccc2c1`: in the assay on Calf thymus DNA, the KSV was 4.27 10^5/M.

By Ki is commonly meant the dissociation constant of the complex between target and ligand, obtained from inhibition or displacement.
